The values that follow come from PubChem BioAssay AID2451 (National Center for Advancing Translational Sciences (NCATS), 2010).

Protein sequences, listed by entry. Tags and fused reporters are not part of them.
UniProt A8B2U2, whole entry: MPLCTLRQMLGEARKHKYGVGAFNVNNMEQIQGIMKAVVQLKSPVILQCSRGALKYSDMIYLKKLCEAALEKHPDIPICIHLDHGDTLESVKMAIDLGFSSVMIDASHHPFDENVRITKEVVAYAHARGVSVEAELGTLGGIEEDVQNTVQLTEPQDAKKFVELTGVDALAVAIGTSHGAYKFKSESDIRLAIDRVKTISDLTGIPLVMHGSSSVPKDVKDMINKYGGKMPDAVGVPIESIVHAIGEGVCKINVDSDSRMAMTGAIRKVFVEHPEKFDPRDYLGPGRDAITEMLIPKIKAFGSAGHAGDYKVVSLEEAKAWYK

The structures appear in SMILES notation. Only a part is listed here, and it is no random draw. Inconclusive results are not listed. Entries that show only a call come without a potency. Calls of active or inactive are those of the source. The call rests on the fitted dose curve; in most records, active means well fitted inhibition curve with a large enough effect; inconclusive means small, poorly fitted or top-dose-only effect, or effect the other way; inactive means flat fitted curve, though single readings scatter.
Potency means the concentration at half of the fitted maximal effect.

The assay has as its target Fructose-bisphosphate aldolase (Giardia intestinalis (strain ATCC 50803 / WB clone C6)) (UniProt A8B2U2). The assay is described as follows: qHTS Assay for Inhibitors of Fructose-1,6-bisphosphate Aldolase from Giardia Lamblia. Further: nearly all actives have a fitted effect of over 55% in size. The following applies: purified Giardia FBPA; series mostly up to 59.6 µM. (Quantitative high-throughput screening tests each substance at several concentrations.)
For the molecule `CP(=O)(Nc1ccccc1F)Oc1ccccc1` (stereo unspecified), the Potency entry is “inactive”.

In the case of `CC(C)c1ccc(OP(C)(=O)Nc2ccc(SC(F)(F)F)cc2)cc1` (stereo unspecified), the Potency result is “inactive”.

As to `O=C(OCCN1CCN(CCOCc2ccccc2)CC1)C(O)(c1ccccc1)c1ccccc1`, the Potency entry is “inactive”.

For `CCOC(=O)c1ccc(NP(C)(=O)Oc2ccc(F)cc2)cc1` (stereo unspecified), the Potency result was “inactive”.

Regarding `COc1ccc(OP(C)(=O)Nc2ccc(SC(F)(F)F)cc2)cc1` (stereo unspecified), the Potency entry was “inactive”.

As to `CCN(CC)CCCOC(=O)C(O)(c1ccccc1)C1CCCCC1` (stereo unspecified), the Potency entry was “inactive”.

Turning to `CP(=O)(Nc1ccccc1)Oc1ccc(F)cc1` (stereo unspecified), the Potency entry is “inactive”.

`CCCCCOc1ccc(NP(C)(=O)Oc2ccc(Cl)cc2Cl)cc1` (stereo unspecified): the Potency result is “inactive”.

For `COc1ccc(OP(C)(=O)Nc2cccc(Br)c2)cc1` (stereo unspecified), the Potency entry is “inactive”.

`CN(C)CCOC(=O)C(O)(c1ccccc1)C1CCCCC1` (stereo unspecified): the Potency result is “inactive”.

For `COc1ccc(NP(C)(=O)Oc2ccccc2OC)cc1` (stereo unspecified), the Potency result was “inactive”.

Turning to `O=[N+]([O-])c1ccc(OP2(=O)COCCO2)cc1` (stereo unspecified), the Potency result was “inactive”.

In the case of `Cc1cc(-c2cccc3ccccc23)c(C)cn1.O=[N+]([O-])c1cc([N+](=O)[O-])c(O)c([N+](=O)[O-])c1`, the Potency entry was “inactive”.

In the case of `CP(=O)(Nc1ccc(SC(F)(F)F)cc1)Oc1ccc(F)cc1` (stereo unspecified), the Potency entry was “inactive”.

For `CCOP(C)(=S)SCC(=O)NC(C)(CC)C(=O)O` (stereo unspecified), the Potency entry is “inactive”.

Regarding `CP(=O)(Nc1ccc2c(c1)OCCO2)Oc1ccccc1` (stereo unspecified), the Potency entry was “inactive”.

As to `Cc1ccccc1NP(C)(=O)Nc1ccccc1C`, the Potency result was “inactive”.

With `CCN(CCCl)Cc1ccccc1C`, the Potency entry is “inactive”.

As to `COc1ccc(OP(C)(=O)Nc2ccc(Br)cc2)cc1` (stereo unspecified), the Potency entry was “inactive”.

With `CCN(CC)CC(O)COC(=O)C(O)(c1ccccc1)C1CCCCC1` (stereo unspecified), the Potency result was “inactive”.

For the molecule `OCCSCCO`, the Potency entry was “inactive”.

For the molecule `O=C(OCCCN1CCCC1)C(O)(c1ccccc1)C1CCCCC1` (stereo unspecified), the Potency result was “inactive”.

Take `COc1ccccc1OP(C)(=O)Nc1c(C)n(C)n(-c2ccccc2)c1=O` (stereo unspecified): the Potency result is “inactive”.

For `CCc1ccc(OP(C)(=O)Nc2cccnc2)cc1` (stereo unspecified), the Potency entry was “inactive”.

As to `CP(=O)(Oc1ccccc1)N1CCOC1=O` (stereo unspecified), the Potency result was “inactive”.

For the molecule `COc1ccccc1OP(C)(=O)Nc1ccccc1Br` (stereo unspecified), the Potency result is “inactive”.

For `CC(C)(C)c1ccc(OP(C)(=O)O)cc1`, the Potency result is “inactive”.

In the case of `CCOC(=O)c1ccc(NP(C)(=O)Oc2ccc(Cl)cc2)cc1` (stereo unspecified), the Potency entry is “inactive”.

Take `CP(=O)(OC12CC3CC(CC(C3)C1)C2)OC12CC3CC(CC(C3)C1)C2`: the Potency entry was “inactive”.

On to `C/C1=C2N=C(/C=C3N=C(/C(C)=C4\[N-][C@@](C)([C@H]5N=C1[C@@](C)(CCC(=O)NC[C@H](C)OP(=O)([O-])O[C@@H]1[C@H](O)[C@H](n6cnc7cc(C)c(C)cc76)O[C@@H]1CO)[C@@H]5CC(N)=O)[C@](C)(CC(N)=O)[C@H]4CCC(N)=O)[C@@](C)(CC(N)=O)[C@@H]\3CCC(N)=O)C(C)(C)[C@@H]/2CCC(N)=O.[C-]#N.[Co+3]`, for which the Potency result was “inactive”.

`Cc1cc(C)cc(OP(C)(=O)Nc2cccc(C(F)(F)F)c2)c1` (stereo unspecified): the Potency result was “inactive”.

As to `COc1ccccc1OP(C)(=O)Nc1ccc(C)c(C)c1` (stereo unspecified), the Potency entry was “inactive”.

As for `COc1ccc(OP(C)(=O)Nc2ccccc2Br)cc1` (stereo unspecified), the Potency result was “inactive”.

Turning to `CP(=O)(Nc1ccc(Cl)cc1Cl)Oc1ccccc1` (stereo unspecified), the Potency result is “inactive”.

In the case of `CP(=O)(OCCOc1ccccc1)OCCOc1ccccc1`, the Potency result is “inactive”.

With `COc1ccccc1OP(C)(=O)Nc1ccc(Br)cc1` (stereo unspecified), the Potency result is “inactive”.

Take `COc1ccc(OP(C)(=O)Nc2ccccn2)cc1` (stereo unspecified): the Potency entry is “inactive”.

As for `CN(C)CCOC(=O)C(O)(c1ccccc1)C1CCCC1` (stereo unspecified), the Potency result is “inactive”.

Turning to `Cc1c(NP(C)(=O)Oc2ccc(C(C)C)cc2)c(=O)n(-c2ccccc2)n1C` (stereo unspecified), the Potency result was “inactive”.

Turning to `O=[N+]([O-])c1cc([N+](=O)[O-])c(Nc2ccccn2)c([N+](=O)[O-])c1`, the Potency is active: 3.15 µM.

In the case of `COc1ccccc1OP(C)(=O)Nc1ccc(C)cc1C` (stereo unspecified), the Potency result is “inactive”.

As for `CP(=O)(Nc1ccccn1)Oc1ccccc1` (stereo unspecified), the Potency entry was “inactive”.

In the case of `CCc1ccc(OP(C)(=O)O)cc1`, the Potency entry is “inactive”.

Turning to `CCN(CC)CCCOC(=O)C(O)(c1ccccc1)c1ccccc1`, the Potency result is “inactive”.

On to `O=C(O)C1(O)c2ccccc2-c2ccccc21`, for which the Potency entry is “inactive”.

As for `Cc1cccc(C)c1OP(C)(N)=O` (stereo unspecified), the Potency result is “inactive”.

On to `O=C(O)C(O)(c1ccccc1)c1ccccc1`, for which the Potency result was “inactive”.

With `CC(C)(C)c1ccc(OP(C)(=O)Nc2ccc(SC(F)(F)F)cc2)cc1` (stereo unspecified), the Potency entry is “inactive”.

In the case of `Cc1ccc(NP(C)(=O)Oc2ccccc2)c(C)c1` (stereo unspecified), the Potency entry was “inactive”.

With `COc1ccccc1OP(C)(=O)Nc1ccc(C)cc1` (stereo unspecified), the Potency result is “inactive”.

For `CCOC(=O)c1ccc(NP(C)(=O)Oc2ccccc2)cc1` (stereo unspecified), the Potency entry was “inactive”.

For the molecule `Cc1cc(C)cc(OP(C)(N)=O)c1` (stereo unspecified), the Potency result was “inactive”.

On to `COc1ccc(OP(C)(=O)Nc2cccc(F)c2)cc1` (stereo unspecified), for which the Potency result was “inactive”.

On to `COc1ccccc1OP(C)(=O)Nc1cc(Cl)ccc1C` (stereo unspecified), for which the Potency entry is “inactive”.

`CP(=S)(Nn1cnnc1)Oc1ccccc1` (stereo unspecified): the Potency result was “inactive”.

In the case of `CP(=O)(Nc1ccccc1Br)Oc1ccccc1` (stereo unspecified), the Potency entry is “inactive”.

On to `COc1ccccc1OP(C)(=O)Nc1ccccc1` (stereo unspecified), for which the Potency result was “inactive”.

Consider `CP(=O)(Oc1ccccc1)OC(c1ccccc1)C(F)(F)F` (stereo unspecified), for which the Potency entry was “inactive”.

For `Cc1cccc(C)c1OP(C)(=O)Nc1ccc(SC(F)(F)F)cc1` (stereo unspecified), the Potency entry is “inactive”.

As for `CP(=O)(Nc1ccc(SC(F)(F)F)cc1)Oc1ccc(Cl)cc1` (stereo unspecified), the Potency entry is “inactive”.

Consider `Cc1cc(C)cc(OP(C)(=O)Nc2ccc(SC(F)(F)F)cc2)c1` (stereo unspecified), for which the Potency entry is “inactive”.

As to `CP(=O)(NC(=O)Nc1ccccc1)Oc1ccccc1` (stereo unspecified), the Potency result is “inactive”.

As for `CCc1ccc(OP(C)(=O)N2CCN(c3ccc([N+](=O)[O-])cc3)CC2)cc1` (stereo unspecified), the Potency result was “inactive”.

Take `CCOC(=O)c1ccc(NP(C)(=O)Oc2ccc(OC)cc2)cc1` (stereo unspecified): the Potency result is “inactive”.

For `CCOP(C)(=S)SCC(=O)NC(C)C(=O)O` (stereo unspecified), the Potency result is “inactive”.

On to `CP(=O)(Nc1ccccn1)Oc1ccc(Cl)cc1` (stereo unspecified), for which the Potency result is “inactive”.

With `O=[N+]([O-])c1cc([N+](=O)[O-])c(-n2nnc3ccccc32)c([N+](=O)[O-])c1`, the Potency result was “inactive”.

In the case of `CC(C)N(CCCl)C(C)C`, the Potency result is “inactive”.

With `O=[N+]([O-])c1cc([N+](=O)[O-])c(Nc2nnnn2CCO)c([N+](=O)[O-])c1`, the Potency entry was “inactive”.

In the case of `COc1ccccc1OP(C)(=O)Nc1c(C)cccc1C` (stereo unspecified), the Potency result is “inactive”.

In the case of `CN1CCCCC1COC(=O)C1(O)c2ccccc2CCc2ccccc21` (stereo unspecified), the Potency result was “inactive”.

With `CCCOc1ccc(NP(C)(=O)Oc2ccc(Cl)cc2)cc1` (stereo unspecified), the Potency entry was “inactive”.

Turning to `CP(=O)(Nc1ccc(SC(F)(F)F)cc1)Oc1ccccc1` (stereo unspecified), the Potency result was “inactive”.

Consider `CC1=NCCc2c1[nH]c1ccccc21.O=[N+]([O-])c1cc([N+](=O)[O-])c(O)c([N+](=O)[O-])c1`, for which the Potency result was “inactive”.

Turning to `O=[N+]([O-])OCC(CO[N+](=O)[O-])(CO[N+](=O)[O-])CO[N+](=O)[O-]`, the Potency result is “inactive”.

For `COc1ccccc1OP(C)(=O)Nc1cccc(Br)c1` (stereo unspecified), the Potency entry was “inactive”.

Regarding `CCOC(=O)c1ccc(NP(C)(=O)Oc2cc(C)cc(C)c2)cc1` (stereo unspecified), the Potency result is “inactive”.

On to `Cc1cc(C)cc(OP(C)(=O)Nc2ccc(C)cc2C)c1` (stereo unspecified), for which the Potency entry is “inactive”.

In the case of `Cc1ccc(C)c(NP(C)(=O)Oc2ccccc2)c1` (stereo unspecified), the Potency result was “inactive”.

As to `Cc1cc(C)cc(OP(C)(=O)Nc2ccccn2)c1` (stereo unspecified), the Potency entry was “inactive”.

For `CP(=O)(Nc1cccc(Br)c1)Oc1ccccc1` (stereo unspecified), the Potency entry was “inactive”.
